Tests used:
D(1A) dopamine receptor = D(1A) dopamine receptor (Rattus norvegicus, UniProt P18901)
D(3) dopamine receptor = D(3) dopamine receptor (Rattus norvegicus, UniProt P19020); design: species or system Tissue
[1] = molecular target: 5-hydroxytryptamine receptor 2A (Rattus norvegicus, UniProt P14842)

Chains of the proteins cited; added tags and fusions are not shown.
UniProt P18901, whole entry: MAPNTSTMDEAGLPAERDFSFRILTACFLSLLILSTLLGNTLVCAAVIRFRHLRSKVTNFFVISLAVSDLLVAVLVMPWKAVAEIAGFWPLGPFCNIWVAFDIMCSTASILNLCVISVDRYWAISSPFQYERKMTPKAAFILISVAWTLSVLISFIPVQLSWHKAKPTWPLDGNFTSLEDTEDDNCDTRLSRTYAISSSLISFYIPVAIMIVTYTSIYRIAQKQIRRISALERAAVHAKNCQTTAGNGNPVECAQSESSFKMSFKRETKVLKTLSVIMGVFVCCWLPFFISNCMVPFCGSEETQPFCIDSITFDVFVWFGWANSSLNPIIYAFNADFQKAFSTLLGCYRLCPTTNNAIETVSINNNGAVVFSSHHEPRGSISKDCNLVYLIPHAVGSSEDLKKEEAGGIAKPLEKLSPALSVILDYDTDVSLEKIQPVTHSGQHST
UniProt P19020, whole entry: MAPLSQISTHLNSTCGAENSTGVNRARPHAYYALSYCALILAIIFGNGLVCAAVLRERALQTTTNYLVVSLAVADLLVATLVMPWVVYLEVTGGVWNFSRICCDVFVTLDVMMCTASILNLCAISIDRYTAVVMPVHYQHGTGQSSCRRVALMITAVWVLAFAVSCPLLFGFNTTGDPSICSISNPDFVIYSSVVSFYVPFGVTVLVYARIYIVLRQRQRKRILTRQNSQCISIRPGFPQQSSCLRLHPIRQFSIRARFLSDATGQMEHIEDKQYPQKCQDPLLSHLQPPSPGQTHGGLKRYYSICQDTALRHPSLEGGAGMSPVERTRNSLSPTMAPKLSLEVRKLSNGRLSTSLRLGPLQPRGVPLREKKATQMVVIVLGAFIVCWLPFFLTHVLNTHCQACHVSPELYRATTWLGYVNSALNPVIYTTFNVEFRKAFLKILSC
UniProt P14842, whole entry: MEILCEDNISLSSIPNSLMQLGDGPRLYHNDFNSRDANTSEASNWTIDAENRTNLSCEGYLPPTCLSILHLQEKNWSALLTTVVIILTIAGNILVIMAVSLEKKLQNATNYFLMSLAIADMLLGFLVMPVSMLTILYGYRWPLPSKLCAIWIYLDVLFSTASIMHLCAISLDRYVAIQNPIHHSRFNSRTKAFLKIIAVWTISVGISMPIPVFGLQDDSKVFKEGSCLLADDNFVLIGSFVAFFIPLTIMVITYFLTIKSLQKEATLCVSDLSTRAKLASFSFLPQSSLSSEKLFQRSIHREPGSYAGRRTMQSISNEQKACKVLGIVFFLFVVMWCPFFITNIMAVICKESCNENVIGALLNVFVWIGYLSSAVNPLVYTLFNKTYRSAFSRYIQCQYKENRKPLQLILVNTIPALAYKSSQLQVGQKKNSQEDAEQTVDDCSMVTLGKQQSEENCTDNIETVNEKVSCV

Row | Structure (SMILES) | Ki (D(1A) dopamine receptor) | further results
1 | CN1CCN([C@@H]2Cn3cccc3Sc3ccc(Cl)cc32)CC1 | 0.0164 µM | 
2 | CN1CCN(C2Cn3cccc3Sc3ccc(Br)cc32)CC1 (racemic) |  | Ki (D(3) dopamine receptor): 0.0036 µM
3 | CN1CCN(C2Cn3cccc3Sc3ccc(F)cc32)CC1 (racemic) |  | Ki [1]: 0.00513 µM
4 | CN1CCN(C2Cn3cccc3Sc3ccccc32)CC1 (racemic) | 0.216 µM | 
